Legend:
[1] = tested on: Phosphatidylinositol 4,5-bisphosphate 3-kinase catalytic subunit alpha isoform (Homo sapiens), P42336 [Q546K]; details: Compound concentration 1000.0 nM
[2] = molecular target: T1, Serine/threonine-protein kinase TAO3 (Homo sapiens) (UniProt Q9H2K8); details: Compound concentration 1000.0 nM
T1 sequence (whole entry): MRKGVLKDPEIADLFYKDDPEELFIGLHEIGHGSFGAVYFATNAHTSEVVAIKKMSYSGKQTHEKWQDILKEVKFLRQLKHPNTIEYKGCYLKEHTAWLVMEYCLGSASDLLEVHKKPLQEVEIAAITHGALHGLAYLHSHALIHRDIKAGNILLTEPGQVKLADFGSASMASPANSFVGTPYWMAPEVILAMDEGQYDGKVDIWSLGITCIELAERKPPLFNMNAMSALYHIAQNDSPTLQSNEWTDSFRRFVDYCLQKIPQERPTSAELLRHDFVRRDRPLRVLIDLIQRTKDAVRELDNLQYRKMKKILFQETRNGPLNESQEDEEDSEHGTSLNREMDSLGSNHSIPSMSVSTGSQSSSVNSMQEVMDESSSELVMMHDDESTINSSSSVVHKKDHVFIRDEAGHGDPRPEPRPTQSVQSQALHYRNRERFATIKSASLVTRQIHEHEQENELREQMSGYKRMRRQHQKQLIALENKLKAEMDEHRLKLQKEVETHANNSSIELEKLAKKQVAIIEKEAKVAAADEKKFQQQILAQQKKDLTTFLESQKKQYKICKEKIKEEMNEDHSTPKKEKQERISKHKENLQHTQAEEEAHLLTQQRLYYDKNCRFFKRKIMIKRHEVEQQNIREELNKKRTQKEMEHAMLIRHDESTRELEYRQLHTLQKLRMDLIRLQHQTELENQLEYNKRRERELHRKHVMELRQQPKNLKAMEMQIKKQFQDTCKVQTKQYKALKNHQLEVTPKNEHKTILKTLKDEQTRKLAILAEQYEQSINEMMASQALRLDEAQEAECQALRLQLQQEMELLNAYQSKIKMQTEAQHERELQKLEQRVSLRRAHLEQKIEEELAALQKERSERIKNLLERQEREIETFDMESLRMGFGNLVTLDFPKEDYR

Protein sequences, listed by entry. Tags and fused reporters are not part of them.
Phosphatidylinositol 4,5-bisphosphate 3-kinase catalytic subunit alpha isoform (Homo sapiens), P42336, UniProt P42336, whole entry Q546K: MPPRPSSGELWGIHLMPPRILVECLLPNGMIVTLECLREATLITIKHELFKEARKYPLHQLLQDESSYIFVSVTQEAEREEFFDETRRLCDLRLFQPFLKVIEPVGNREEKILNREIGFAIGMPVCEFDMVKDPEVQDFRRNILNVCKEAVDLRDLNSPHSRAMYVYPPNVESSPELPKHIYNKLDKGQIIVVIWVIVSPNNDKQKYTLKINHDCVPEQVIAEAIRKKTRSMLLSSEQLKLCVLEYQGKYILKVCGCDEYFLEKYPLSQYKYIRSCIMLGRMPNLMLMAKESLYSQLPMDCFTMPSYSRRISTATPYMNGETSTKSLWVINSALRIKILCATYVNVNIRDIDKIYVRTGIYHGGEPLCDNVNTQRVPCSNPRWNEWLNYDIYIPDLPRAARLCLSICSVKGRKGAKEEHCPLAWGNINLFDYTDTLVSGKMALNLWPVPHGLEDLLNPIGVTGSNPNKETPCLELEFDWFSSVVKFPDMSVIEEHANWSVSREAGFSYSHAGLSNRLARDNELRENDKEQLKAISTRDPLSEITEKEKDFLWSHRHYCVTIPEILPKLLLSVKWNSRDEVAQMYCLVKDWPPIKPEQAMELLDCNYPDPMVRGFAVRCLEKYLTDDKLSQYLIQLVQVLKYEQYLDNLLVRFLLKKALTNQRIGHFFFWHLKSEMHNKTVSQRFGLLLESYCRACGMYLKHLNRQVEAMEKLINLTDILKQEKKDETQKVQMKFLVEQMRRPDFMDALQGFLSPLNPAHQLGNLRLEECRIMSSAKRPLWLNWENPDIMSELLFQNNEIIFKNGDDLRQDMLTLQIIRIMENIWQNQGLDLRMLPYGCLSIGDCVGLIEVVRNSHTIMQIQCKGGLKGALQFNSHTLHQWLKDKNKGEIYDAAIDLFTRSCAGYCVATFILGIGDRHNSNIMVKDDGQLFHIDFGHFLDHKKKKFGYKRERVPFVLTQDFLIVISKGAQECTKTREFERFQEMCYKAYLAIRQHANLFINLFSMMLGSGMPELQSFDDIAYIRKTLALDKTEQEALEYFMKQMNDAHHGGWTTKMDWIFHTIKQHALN

Question: Which results are given for `C[C@H](c1ccc(F)cc1)N(Cc1cccc(C(=O)O)c1)C(=O)c1cnc2ccccc2c1` [PF-05105679]?
Answer: residual activity [1]: 42%; residual activity [2]: 41%

Reference: ChEMBL document CHEMBL4507296, “Data for DCP probe PF-05105679” (2021)
